## Measured affinities in a library of Ab-14 heavy chain variants

The target is the same throughout: PDVDLGDISGINAS, from the HR2 region of SARS-CoV-2 spike.

Parent scFv Ab-14: VH joined to VL by a (GGGGS)3 linker. Changes lie in the heavy chain CDRs alone.
VH: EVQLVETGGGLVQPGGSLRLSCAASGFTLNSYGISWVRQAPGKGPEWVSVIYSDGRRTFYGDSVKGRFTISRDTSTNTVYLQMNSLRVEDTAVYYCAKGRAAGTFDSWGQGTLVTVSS
VL: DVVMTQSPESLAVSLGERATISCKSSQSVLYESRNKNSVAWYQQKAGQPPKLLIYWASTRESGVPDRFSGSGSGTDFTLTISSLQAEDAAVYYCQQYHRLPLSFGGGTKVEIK

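These sequences belong to a second round, designed from the earlier measurements on random variants of the parent. Their group label is 14H_En_Gibbs (En: ensemble of fine-tuned language models; Gibbs: Gibbs sampling). AlphaSeq pools MATa yeast showing the antibodies with MATalpha yeast showing the peptide. Pairs that bind mate more often; barcode pairs of the diploids are counted by sequencing. Scores were corrected for input abundance and mapped to Kd with protein pairs of known affinity run in the same pool. Mating was done six times.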

Sequences are complete VH domains.
Values are log10 of the apparent Kd in nM; lower means stronger binding.
Where no diploid with the target was found in that replicate, the entry reads "n.d.": below detection, most likely a poor binder, though not proof of it.
Values of this round are not directly comparable with the first-round values of the same sequences.
In the paper, a design with two or fewer of six values counts as a poor binder.
Background: pairings of all heavy chain designs with three empty control strains gave a value in 1% of cases (median 2.08, 5th percentile 0.84). Values in that range, when seen in few replicates, are hard to tell from nonspecific mating. The control count says in how many pairings with the empty strains this scFv gave a signal, with their mean in brackets.

{"VH": "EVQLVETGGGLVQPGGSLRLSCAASGFQIDEYGISWVRQAPGKGPEWVSVIYADGKRSGYKNEVKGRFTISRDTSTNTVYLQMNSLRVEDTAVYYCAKGNFNVSGSVWGQGTLVTVSS", "log10 Kd, replicates": "n.d. / n.d. / n.d. / n.d. / n.d. / n.d.", "control signals": "0 of 18"}
{"VH": "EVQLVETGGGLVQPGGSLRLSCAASGFNLDEYGISWVRQAPGKGPEWVSVIYADGMRTAYASKVKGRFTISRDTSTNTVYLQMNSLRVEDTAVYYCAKGKVWWFLLMWGQGTLVTVSS", "log10 Kd, replicates": "n.d. / n.d. / n.d. / n.d. / n.d. / n.d.", "control signals": "0 of 18"}
{"VH": "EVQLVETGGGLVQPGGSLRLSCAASGFDLDQYGISWVRQAPGKGPEWVSVIYADGIRSVYADAVKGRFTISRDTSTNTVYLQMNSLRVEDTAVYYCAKGHEGGILYVWGQGTLVTVSS", "log10 Kd, replicates": "n.d. / n.d. / n.d. / n.d. / n.d. / n.d.", "control signals": "0 of 18"}
{"VH": "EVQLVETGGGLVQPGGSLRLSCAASGFSLDEYGISWVRQAPGKGPEWVSVIYADGFRTAYTQSVKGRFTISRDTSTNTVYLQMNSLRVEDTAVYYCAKGLMQQGRTVWGQGTLVTVSS", "log10 Kd, replicates": "n.d. / n.d. / 1.19 / n.d. / n.d. / n.d.", "control signals": "0 of 18"}
{"VH": "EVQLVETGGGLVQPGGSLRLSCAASGFDLEEYGISWVRQAPGKGPEWVSVIYADGMRQMYAQNVKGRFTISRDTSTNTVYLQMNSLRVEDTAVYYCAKGYNQSDMTVWGQGTLVTVSS", "log10 Kd, replicates": "n.d. / n.d. / n.d. / n.d. / n.d. / n.d.", "control signals": "0 of 18"}
{"VH": "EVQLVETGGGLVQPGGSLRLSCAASGFDLEEYGISWVRQAPGKGPEWVSVIYADGRRTAYADNVKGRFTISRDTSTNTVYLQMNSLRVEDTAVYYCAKGMSGADGMFWGQGTLVTVSS", "log10 Kd, replicates": "n.d. / n.d. / n.d. / n.d. / n.d. / n.d.", "control signals": "0 of 18"}
{"VH": "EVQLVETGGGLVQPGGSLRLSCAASGFSLNEYGISWVRQAPGKGPEWVSVIYADGTRKSYADNVKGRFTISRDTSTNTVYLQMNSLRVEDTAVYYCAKGYQHSVVSLWGQGTLVTVSS", "log10 Kd, replicates": "n.d. / n.d. / n.d. / n.d. / n.d. / n.d.", "control signals": "1 of 18 (1.62)"}
{"VH": "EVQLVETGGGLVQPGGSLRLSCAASGFDLDQYGISWVRQAPGKGPEWVSVIYADGMRAGYADSVKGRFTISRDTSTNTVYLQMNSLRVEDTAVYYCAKGHWGGKFLVWGQGTLVTVSS", "log10 Kd, replicates": "n.d. / n.d. / n.d. / n.d. / n.d. / n.d.", "control signals": "0 of 18"}
{"VH": "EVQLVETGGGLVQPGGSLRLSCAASGFSLDEYGISWVRQAPGKGPEWVSVIYADGVRTQYHDSVKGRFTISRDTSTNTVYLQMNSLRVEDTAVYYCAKGTGGFDIELWGQGTLVTVSS", "log10 Kd, replicates": "n.d. / n.d. / n.d. / n.d. / n.d. / n.d.", "control signals": "0 of 18"}
{"VH": "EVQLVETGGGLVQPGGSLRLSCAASGFSLDEQGISWVRQAPGKGPEWVSVIYADGIRRSYAQKVKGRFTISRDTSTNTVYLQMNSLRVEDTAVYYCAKGQYGGDFIEWGQGTLVTVSS", "log10 Kd, replicates": "n.d. / n.d. / n.d. / 3.98 / n.d. / n.d.", "control signals": "2 of 18 (1.49)"}
{"VH": "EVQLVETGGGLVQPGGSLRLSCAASGDSLEDYGISWVRQAPGKGPEWVSVIYADGRRTAYQESVKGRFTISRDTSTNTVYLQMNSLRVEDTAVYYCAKGLYAGMLDVWGQGTLVTVSS", "log10 Kd, replicates": "n.d. / n.d. / n.d. / n.d. / n.d. / n.d.", "control signals": "0 of 18"}
{"VH": "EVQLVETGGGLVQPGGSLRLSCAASGEDLMEYGISWVRQAPGKGPEWVSVIYADGVRFSYIDDVKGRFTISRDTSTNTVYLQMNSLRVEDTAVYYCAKGQSTGFLDVWGQGTLVTVSS", "log10 Kd, replicates": "n.d. / n.d. / n.d. / n.d. / n.d. / n.d.", "control signals": "0 of 18"}
{"VH": "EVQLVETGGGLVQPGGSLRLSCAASGFDINEYGISWVRQAPGKGPEWVSVMYADGSRVVYRDNVKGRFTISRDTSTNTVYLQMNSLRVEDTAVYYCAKGFWGGTFDMWGQGTLVTVSS", "log10 Kd, replicates": "n.d. / n.d. / n.d. / n.d. / n.d. / n.d.", "control signals": "0 of 18"}
{"VH": "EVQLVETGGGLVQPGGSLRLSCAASGFSVEEYGISWVRQAPGKGPEWVSVIYADGRRVAYAKDVKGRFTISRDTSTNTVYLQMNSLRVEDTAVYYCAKGMNFDGIVVWGQGTLVTVSS", "log10 Kd, replicates": "n.d. / n.d. / n.d. / n.d. / n.d. / n.d.", "control signals": "0 of 18"}
{"VH": "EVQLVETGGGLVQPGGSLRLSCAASGFEIQDYGISWVRQAPGKGPEWVSVIYADGLRTSYSNKFKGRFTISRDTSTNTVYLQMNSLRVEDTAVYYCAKGIIAGTFTSWGQGTLVTVSS", "log10 Kd, replicates": "0.92 / 0.19 / 0.71 / 0.54 / -0.11 / 0.05", "control signals": "0 of 18"}
{"VH": "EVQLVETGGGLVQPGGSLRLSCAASGFDIEEYGISWVRQAPGKGPEWVSVIYADGERTSYSNAVKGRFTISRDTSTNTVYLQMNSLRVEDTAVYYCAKGNMAGTFLIWGQGTLVTVSS", "log10 Kd, replicates": "-0.02 / 0.57 / 0.17 / 0.10 / 0.25 / 2.96", "control signals": "0 of 18"}
{"VH": "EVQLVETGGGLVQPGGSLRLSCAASGFTLDEYGISWVRQAPGKGPEWVSVIYADGQRTAYIDDVKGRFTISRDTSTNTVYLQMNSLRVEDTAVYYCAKGQMGGNGYVWGQGTLVTVSS", "log10 Kd, replicates": "-0.32 / -0.71 / -0.95 / -0.98 / -0.90 / -0.40", "control signals": "0 of 18"}
{"VH": "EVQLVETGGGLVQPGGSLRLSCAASGKSLEEYGISWVRQAPGKGPEWVSVIYADGKRSMYANNVKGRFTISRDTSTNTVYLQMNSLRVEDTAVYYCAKGHVGYIFMMWGQGTLVTVSS", "log10 Kd, replicates": "n.d. / n.d. / n.d. / n.d. / n.d. / n.d.", "control signals": "0 of 18"}
{"VH": "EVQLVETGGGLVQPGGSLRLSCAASGFSIDEYGISWVRQAPGKGPEWVSVIYADGMRARYSDAVKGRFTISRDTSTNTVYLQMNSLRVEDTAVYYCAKGVKVGNVVMWGQGTLVTVSS", "log10 Kd, replicates": "n.d. / n.d. / n.d. / n.d. / n.d. / n.d.", "control signals": "0 of 18"}
{"VH": "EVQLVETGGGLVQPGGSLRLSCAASGEDLEEYGISWVRQAPGKGPEWVSVIYADGRRSAYADNVKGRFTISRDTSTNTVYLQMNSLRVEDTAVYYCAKGMSGNFGMFWGQGTLVTVSS", "log10 Kd, replicates": "n.d. / n.d. / n.d. / n.d. / n.d. / n.d.", "control signals": "0 of 18"}
{"VH": "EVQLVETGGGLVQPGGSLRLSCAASGFSLNEYGISWVRQAPGKGPEWVSVIYADGMRTRYAQNFKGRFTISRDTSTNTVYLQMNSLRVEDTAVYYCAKGYNSSDLTVWGQGTLVTVSS", "log10 Kd, replicates": "n.d. / n.d. / 1.91 / n.d. / n.d. / n.d.", "control signals": "0 of 18"}
{"VH": "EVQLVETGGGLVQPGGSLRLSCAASGFDLMEYGVSWVRQAPGKGPEWVSVIYADGQRQYYANKVKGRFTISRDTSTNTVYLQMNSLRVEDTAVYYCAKGEISASFLIWGQGTLVTVSS", "log10 Kd, replicates": "n.d. / n.d. / n.d. / n.d. / n.d. / n.d.", "control signals": "0 of 18"}
{"VH": "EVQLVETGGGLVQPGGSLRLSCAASGFDLMEYGISWVRQAPGKGPEWVSVIYADGVRRAYSQSVKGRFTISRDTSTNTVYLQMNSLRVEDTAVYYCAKGEGEDLYLDWGQGTLVTVSS", "log10 Kd, replicates": "n.d. / n.d. / n.d. / n.d. / n.d. / n.d.", "control signals": "1 of 18 (1.46)"}
{"VH": "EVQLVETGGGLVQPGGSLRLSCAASGKGLDEYGVSWVRQAPGKGPEWVSVIYADGKRHQYAEDVKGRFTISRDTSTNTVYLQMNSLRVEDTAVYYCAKGGIAGQFLVWGQGTLVTVSS", "log10 Kd, replicates": "n.d. / n.d. / n.d. / n.d. / n.d. / n.d.", "control signals": "0 of 18"}
{"VH": "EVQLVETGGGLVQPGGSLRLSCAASGYDLVEYGISWVRQAPGKGPEWVSVIYADGQRTAYADDVKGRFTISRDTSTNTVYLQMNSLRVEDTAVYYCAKGNHGGTIDVWGQGTLVTVSS", "log10 Kd, replicates": "n.d. / n.d. / n.d. / n.d. / n.d. / n.d.", "control signals": "2 of 18 (2.03)"}

The last 4 entries again:

VH	log10 Kd, replicates	control signals
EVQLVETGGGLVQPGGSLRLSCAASGFDLMEYGVSWVRQAPGKGPEWVSVIYADGQRQYYANKVKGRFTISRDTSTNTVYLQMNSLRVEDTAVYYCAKGEISASFLIWGQGTLVTVSS	n.d. / n.d. / n.d. / n.d. / n.d. / n.d.	0 of 18
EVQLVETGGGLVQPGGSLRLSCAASGFDLMEYGISWVRQAPGKGPEWVSVIYADGVRRAYSQSVKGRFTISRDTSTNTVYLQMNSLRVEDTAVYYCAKGEGEDLYLDWGQGTLVTVSS	n.d. / n.d. / n.d. / n.d. / n.d. / n.d.	1 of 18 (1.46)
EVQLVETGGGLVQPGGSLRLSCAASGKGLDEYGVSWVRQAPGKGPEWVSVIYADGKRHQYAEDVKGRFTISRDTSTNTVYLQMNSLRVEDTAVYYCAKGGIAGQFLVWGQGTLVTVSS	n.d. / n.d. / n.d. / n.d. / n.d. / n.d.	0 of 18
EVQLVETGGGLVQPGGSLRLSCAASGYDLVEYGISWVRQAPGKGPEWVSVIYADGQRTAYADDVKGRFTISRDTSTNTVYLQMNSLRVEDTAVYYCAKGNHGGTIDVWGQGTLVTVSS	n.d. / n.d. / n.d. / n.d. / n.d. / n.d.	2 of 18 (2.03)

Values reported by Li et al. 2023, doi:10.1038/s41467-023-39022-2 (FLAb copy).